# Assay results reported in the supplement of paper PMC11150407.
# What follows is the remainder of the data, with few or none of the strong results.
# Test system: MOLM1 and UCSD/AML1 (averaged)
# Assay: cell viability relative to DMSO control (POC); higher = less growth inhibition
# Settings: 1 µM; 72 h
# Description: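 Primary viability screen in the 3q26 EVI1-high AML cell lines MOLM1 and UCSD/AML1 (1.5e3 cells/well, 384-well), compounds at 1 uM for 72 h. ATP CellTiter-Glo read-out given as percent of viable cells over DMSO control (POC), averaged over duplicates. DMSO was the negative control and 5 uM etoposide the positive control. This mapping covers the MicroSource Spectrum and Selleck anticancer libraries (drug names).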
row,Compound,cell viability
1,COc1c2ccccc2nc2occc12,95.2%
